Test system: human patient-derived primary hepatocytes
Experiment: AAV2/6 ZFN transduction of primary hepatocytes with PDGFR inhibitor; % indels
Type: cell-based
Procedure: We next tested the effect of PDGFR inhibitors human patient-derived primary hepatocytes. For human hepatocytes, 48-well cell culture dishes were purchased pre-coated with collagen (Life Technologies). Plates were incubated for 1 hour at 37° C. Thawing/plating media was prepared by combining 18 mL InVitroGRO CP medium (BioreclamationIVT) and 400 μL Torpedo antibiotic mix (Celsis In Vitro Technologies). Once the plates were prepared, the plate-able human hepatocytes (Lot# AKB), were transferred from the liquid nitrogen vapor phase directly into the 37° C. water bath and thawed under gently stirring. The cells were transferred directly into a 50 ml conical tube containing 5 mL of pre-warmed thawing/plating medium. To retrieve all the cells, the vial was washed with 1 mL of thawing/plating medium, which was added to the cells. Following resuspension of the cells, a small aliquot (20 μL) was removed to perform a cell count and to determine cell viability using trypan blue solution (1:5; Corning, Cat#25-900-C1). The cells were then centrifuged at 75×g for 5 minutes, the supernatant was removed and the cells were resuspended at 1e6 cells/mL. […]
One day after the cells were plated, cells were switched to HCM maintenance medium (Lonza, HBM and HCM SingleQuots). […] Genomic DNA was extracted and analyzed by deep sequencing (MiSeq) at the albumin locus.

With `CC1(COc2ccc3c(c2)ncn3-c2ccc3cccc(N4CCC(N)CC4)c3n2)COC1` [PDGFRi] the “increase in AAV2/6 transduction compared to DMSO treated controls” value (high dose 9 μM, absence of serum) was 5 fold and the “increased AAV2/6 transduction compared to DMSO treated controls” value (low dose (3)) was “not”.
